Test results reported in US10689415B2, “Conjugates of RGD peptides and (bacterio)chlorophyll photosensitizers” (YEDA RESEARCH AND DEVELOPMENT COMPANY LTD., priority 2006, dated 2020).

Experiments:
[1] = system: large MDA-MB-231-RFP tumors; test: Biodistribution and pharmacokinetics (fluorescence of tissue extracts) in MDA-MB-231-RFP tumor-bearing mice; type: in vivo, CD-1 nude female mice
Method: Mammary fat pads (left, bottom nipple) of female mice were inoculated with harvested MDA-MB-231-RFP human breast cancer cells (4×10^6 in […] saline). Tumors were classified as ‘small’ (˜100 mm^3) at one to two weeks from time of cell injection, or ‘large’ after three to four weeks (necrotic tumors, 250 to 500 mm^3). To avoid tumor burden, mice were sacrificed (cervical dislocation) when tumor size reached 10% of body weight or at 90 days post-implantation. External caliper measurements, length (L), width (W) and depth (D) were used to calculate in vivo tumor volume according to the formula: V=L/2·W/2·D/2·π·4/3.
Anesthetized mice were i.v. injected (tail vein) with the different photosensitizer (pigment) conjugates (control group: untreated). The mice were sacrificed at indicated time points and samples of the indicated organs and tissues (blood, tumor, intestine, liver, spleen, kidneys, testies, heart, lung, brain, skin, muscle and fat) were placed in pre-weighted vials and immediately frozen and stored at −20° in the dark until analyzed. Three methods were used for sample preparation: (1) Each sample was thawed and homogenized in DDW (1:10 w/v). Aliquots of the homogenate (500 μl) were lyophilized in Eppendorf test tubes. Then, 60 μl of HNO3 (70%, TraceSelect, Fluka) were added to each dry sample, incubated for 1 h at 90° C. and diluted with DDW to 3 ml. (2) Each sample was diluted (1:2 w/v) in HNO3 (70%, TraceSelect, Fluka). The samples were sonicated for 30 min in boiled water, and left for at least 48 h at room temperature. (3) Applied for assessment of non-metalated conjugates. Each sample was thawed and homogenized in methanol (100 mg tissue/ml) and extracted the next morning by centrifugation (13,000×g, five minutes) at room temperature. In methods (1) and (2), 140 μl from each sample was added to 3.36 ml DDW to give total volume of 3.5 ml and incubated for 1 h at 90° C. Pd concentrations were determined by ICP-MS. According to method (3), the supernatants were diluted in methanol by a factor of two and the drug concentration was determined by fluorescence measurements (Varian-Cary Eclipse spectrofluorimeter, Palo Alto, Calif., USA) at 750 nm (peak values). Drug concentrations were interpolated from a fluorescence calibration curve, based on predetermined drug concentrations using absorption spectroscopy.
Levels of conjugate 13 in blood, liver, kidney and large MDAMB-231-RFP tumors were assessed at the indicated time points after i.v. injection of 15 mg/kg (n=27; FIG. 38A).
In order to determine whether the RGD moiety is imperative for the selective uptake of conjugate 13 by the tumor, its time-dependent accumulation within MDA-MB-231-RFP tumors was compared with that of the RGD-free compound 25.

HSA = HSA (Homo sapiens, UniProt P02768); test: Association constants of photosensitizers to HSA (spectroscopic titration); type: binding
Excerpt: Association constants of photosensitizers, conjugated or non-conjugated to an RGD-containing peptide, were deduced from spectroscopic measurements of the ratio between the photosensitizer and HSA for different concentrations of HSA using both factor analysis, as previously described (Brandis et al., 2005) and by monitoring changes in the near infrared (NIR) absorption of the photosensitizers during titration with HSA. Briefly, all photosensitizers (PhSs) present broad NIR absorption with reduced intensity in SA-free aqueous solutions. Upon addition of SA, they form 1:1 complexes with the added protein (PhS/SA) with strong and narrow NIR absorption bands. The narrow-band absorption is proportional to the (PhS/SA) concentration enabling calculation of the association constant Ka through the following equation:
[formula] where [SA]0 is the analytical concentration of the added SA and [PhS/SA] is the concentration of the photosensitizer complexed with SA calculated from the spectral changes. In Vitro Studies
Therefore, the association constants of compounds 8 and 25 and conjugates 13 and 24 were determined. […] In fact, those for the RGDconjugates were four to six fold lower than the association constants of their RGD-free analogues, ruling out stronger SA association as the sole basis for RGD-conjugates retention in the tumor.

[2] = 48 to 72 hours post-administration

3^1-oxo-15-methoxycarbonylmethyl-Rhodobacteriochlorin 13^1-(2-sulfoethyl)amide-17^3-(cycloRGDfK)amide potassium salt [Conjugate 13]
t1/2 of hepatic clearance ([1]; 15 mg/kg i.v.): about four hours | levels in the tumor relative to blood [1, 2]: about two orders of magnitude higher | levels in the tumor relative to kidney, liver, intestines, lung and skin [1, 2]: approximately two-fold higher | levels in the tumor relative to spleen, heart, brain, fat and muscle [1, 2]: about 10 fold | association constants Ka(HSA) (HSA): 0.12±0.04
